Test results: article doi:10.1101/2022.08.27.505235v1

Test system: O=[N+]([O-])c1ccc(O[C@@H]2O[C@H](CO)[C@@H](O)[C@H](O)[C@H]2O)cc1
Assay: purified protein
Details: 50 mM potassium phosphate, pH 7, 49 °C, no added glucose

β-glucosidase (H0HC94) (Agrobacterium tumefaciens A6; Q327A)
Km: 2100 ± 100 µM
kcat: 276.6 ± 2.3 s⁻¹
